# Source: patent US5863776A, “Method of preparing apoenzyme” (Research Development Foundation, priority 1996, dated 1999)
# The chains behind the UniProt entries cited, without tags or fusion partners.
# UniProt P27338, whole entry: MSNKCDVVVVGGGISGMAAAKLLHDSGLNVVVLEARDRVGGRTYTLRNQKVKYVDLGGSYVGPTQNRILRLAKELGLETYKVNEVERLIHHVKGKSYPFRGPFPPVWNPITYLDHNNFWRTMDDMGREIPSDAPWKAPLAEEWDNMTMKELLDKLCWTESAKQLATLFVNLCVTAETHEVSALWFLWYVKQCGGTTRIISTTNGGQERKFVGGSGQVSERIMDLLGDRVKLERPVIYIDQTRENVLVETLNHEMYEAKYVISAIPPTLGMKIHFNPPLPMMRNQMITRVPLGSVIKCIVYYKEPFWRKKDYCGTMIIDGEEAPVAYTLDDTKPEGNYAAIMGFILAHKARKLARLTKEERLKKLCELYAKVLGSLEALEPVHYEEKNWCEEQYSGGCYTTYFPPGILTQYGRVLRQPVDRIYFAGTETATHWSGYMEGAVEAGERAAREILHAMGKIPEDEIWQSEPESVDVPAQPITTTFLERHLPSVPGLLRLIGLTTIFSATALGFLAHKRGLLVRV
# Target: T1, MAO B (Homo sapiens, UniProt P27338)
# T1 construct: expressed in transfected cells; host or cells: COS-7 (African green monkey), riboflavin-containing (Rib+) or riboflavin-depleted (Rib-), transient electroporation
# Experiment: MAO B enzymatic activity in COS-7 cells during riboflavin depletion
# Format: cell-based
# Description: Mammalian COS-7 cells were grown in Dulbecco's Modified Eagle Medium (DMEM, Gibco) supplemented with 10% fetal bovine serum (FBS, Gibco) at 37° C. with 5% CO2. Since this medium (DMEM+10% FBS) contains riboflavin, COS-7 cells grown in this medium were defined as riboflavin-containing COS-7 cells (Rib^+ COS-7 cells). MAO B holoenzyme was obtained by expressing MAO B cDNA in Rib^+ COS-7 cells. Mammalian COS-7 cells were also grown in riboflavin-free medium (riboflavin-free DMEM+10% dialyzed FBS, Gibco) at 37° C. with 5% CO2, with fresh riboflavin-free medium changed every 48-72 hours. COS-7 cells grown in riboflavin-free medium for longer than 100 days were defined as riboflavin-depleted (Rib^-) COS-7 cells. Apo-MAO B was obtained by expressing MAO B cDNA in Rib^- COS-7 cells. COS-7 cells were grown in riboflavin-free medium for greater than 5 months without any detectable change in morphology.
# Wild-type or mutant MAO B cDNAs were transiently transfected into COS-7 cells by electroporation (23) as previously described (18). Briefly, Rib^+ - or Rib^- COS-7 cells were harvested during late log phase growth and resuspended to a concentration of 3.1×10^6 cells/ml in either riboflavin-containing or riboflavin-free medium, respectively. Wild-type or mutant MAO B cDNAs ([…]) were added to 0.8 ml of cell suspension. […] Electroporation was carried out in a Bio-Rad Gene Pulser with a setting of 250 V and 500 μF. Cells were resuspended in 15 ml of riboflavin-containing or riboflavin-free medium and incubated at 37° C. with 5% CO2. Transfected COS-7 cells were harvested at 48 hours and homogenized in a lysis solution containing 20 mM Tris-HCl, 1 mM EDTA, 0.5 mM PMSF, pH 8.0. The homogenate was diluted with an equal volume of the same buffer supplemented with 300 mM NaCl to obtain a 150 mM final NaCl concentration. Triton X-100 (Pierce) was added to the lysate to give a final concentration of 0.25%, and the samples were allowed to stir for 50 min. at 4° C. to extract MAO B from the outer mitochondrial membrane. After Triton extraction, the lysate was centrifuged at 1300×g for 5 min. at 4° C. to remove insoluble cell debris.
# MAO B activity was assayed radiometrically by a modification of the method of Wurtman and Axelrod (26) as described previously (18). Briefly, the reaction mixture contained 200 μl of 50 mM sodium phosphate buffer (pH 7.4), 3.6 nmole of 55 mCi/mmol [^14 C] benzylamine hydrochloride (Amersham), 10 nmoles of unlabeled benzylamine and 10 μl of cell lysate. […] The reaction product was extracted with 500 μl of toluene, and an aliquot (200 μl) of the organic phase from each sample was counted in liquid scintillation fluid (Bio-Safe) in a Beckman LB 3801 scintillation counter. […]
# [1] = COS-7 cells grown in riboflavin-free medium for 76 days
substance,measurement,setting,value
monoamine oxidase B [MAO B],% of holo-MAO B enzymatic activity,[1],12.7%
same,Enzymatic activity,[1],0.14 μmol/minute/mg MAO B
same,% of holo-MAO B enzymatic activity,Rib^+ COS-7,100%
same,Enzymatic activity,Rib^+ COS-7,1.10 μmol/minute/mg MAO B
